System: Stage 4 pancreatic ductal adenocarcinoma
Format: in vivo, human
Conditions: by month six; absence of feeling in hands and feet
Procedure: SalpIL2 was administered to Patient 1 every two weeks with standard of care chemotherapy.
A patient with metastatic pancreas cancer (hereinafter referred to as “Patient 1”) individually sought out the possibility of receiving SalpIL2 in addition to their standard of care chemotherapy.
Patient 1 was a person with a past medical history of hypercholesterolemia and presented with a several week history of abdominal pain and bloating. Patient 1's workup eventually elucidated a 3.9×5.7 cm mass in the tail of the pancreas with invasion of the splenic hilum and left adrenal gland. In addition, there were multiple metastatic nodules in the lungs and liver of Patient 1. Subsequent fine needle aspiration and biopsy confirmed the diagnosis of Stage 4 pancreatic ductal adenocarcinoma. Patient 1 was immediately started on the FOLFIRINOX regimen of leucovorin, 5-fluorouracil, irinotecan, and oxaliplatin administered every two weeks. Well aware of their prognosis of a median survival of 11.1 months, Patient 1 reached out for the possibility of adding SalpIL2 to their treatment regimen. […]

oxaliplatin
Neurotoxicity in Patient 1: severe neurotoxicity

Source: patent publication US12636320B2, “Methods and agents for treating solid tumor cancers” (priority 2019, dated 2026)
